# Values quoted from earlier work as cited in patent US7211602B2, “Treatment of neurodegenerative disorders through the modulation of the polyamine pathway” (ALS Therapy Development Foundation, Inc., priority 2001, dated 2007).
# Tested on: patients with ALS
# Details: Bensimon et al. 1994; Lacomblez et al. 1996; cited from earlier work
smiles,measurement,value
Nc1nc2ccc(OC(F)(F)F)cc2s1 [riluzole],effect on survival of patients with ALS,statistically significant effects on survival
